The values that follow come from patent US11970523B2 (priority 2018, dated 2024).

By UniProt entry, the sequences of proteins in these tests, tags left out.
UniProt P27487, whole entry, species assumed: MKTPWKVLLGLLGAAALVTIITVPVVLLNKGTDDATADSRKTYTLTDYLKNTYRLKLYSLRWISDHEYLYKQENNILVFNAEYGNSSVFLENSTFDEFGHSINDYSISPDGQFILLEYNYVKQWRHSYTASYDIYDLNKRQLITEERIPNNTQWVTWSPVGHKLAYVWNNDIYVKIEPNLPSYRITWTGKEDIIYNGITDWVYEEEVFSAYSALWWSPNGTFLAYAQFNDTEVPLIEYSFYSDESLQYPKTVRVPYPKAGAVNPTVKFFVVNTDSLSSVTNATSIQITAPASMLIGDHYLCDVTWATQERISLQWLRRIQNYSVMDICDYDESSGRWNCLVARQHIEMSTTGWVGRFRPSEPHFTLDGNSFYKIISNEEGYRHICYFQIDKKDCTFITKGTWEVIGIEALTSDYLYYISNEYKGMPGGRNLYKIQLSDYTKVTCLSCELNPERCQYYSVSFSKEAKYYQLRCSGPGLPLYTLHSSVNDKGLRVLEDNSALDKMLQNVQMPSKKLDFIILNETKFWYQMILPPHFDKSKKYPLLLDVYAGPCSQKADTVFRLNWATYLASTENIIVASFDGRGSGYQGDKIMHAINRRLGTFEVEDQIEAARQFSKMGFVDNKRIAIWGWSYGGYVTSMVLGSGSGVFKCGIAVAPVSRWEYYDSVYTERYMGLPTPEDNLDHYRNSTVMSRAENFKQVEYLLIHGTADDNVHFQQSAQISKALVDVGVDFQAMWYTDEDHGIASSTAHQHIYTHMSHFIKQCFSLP

The target of one data set is DPP-4 enzyme (Homo sapiens, UniProt P27487). The data set is described as follows: Stability test on DPP-4 enzyme. Format: in vitro ADME. The conditions noted are these: Table 10; 5 nmol peptide, 5 mU DPP-4, Tris-HCL 50 mM, pH 7.4, 37° C., HPLC peak area 8 h / 0 h. How it is done:
5 nmol of OXM hybrid peptides and 5 mU of DPP-4 enzyme were put into 200 μL of a Tris-HCL buffer solution with a concentration of 50 mM. Under the condition of pH 7.4, incubation was performed for 8 h at 37° C. After the reaction was completed, 10 L of a 20% acetonitrile/water solution was added for terminating the reaction. Incubation solutions at 0 h and 8 h were taken, treated and subjected to HPLC analysis under the following analysis conditions: C18 reversed-phase column (150 mm×4.6 mm, 5 μm); mobile phase A: 0.1% TFA/water (V/V), and mobile phase B: 0.1% TFA/acetonitrile (V/V); mobile phase gradient: mobile phase B 10%-45%, 22 min; flow rate: 1 mL/min; column temperature: 40° C.; and detection wavelength: 214 nm. The stability condition of OXM analogs on the DPP-4 was expressed by a ratio (% intact peptide after 8 h) of the HPLC peak area of the incubation solution at 8 h to the HPLC peak area of the incubation solution at 0 h.

For data set [1] the following is noted: endogenic GLP-1; cited from earlier work.

On to Oxyntomodulin [OXM, reference compound], for which the “% intact peptide after 8 h” value on DPP-4 enzyme was found to be 39.1 ± 5.9%.

In the case of glucagon-like peptide-1 [GLP-1], the half-life period in data set [1] was 2 to 3 min. For the same substance, the “% intact peptide after 8 h” value on DPP-4 enzyme was determined as 4.3 ± 6.2%.
